Laboratory results: PMC8032343, “Discovery of the natural product 3',4',7,8-tetrahydroxyflavone as a novel and potent selective BRD4 bromodomain 2 inhibitor” (Journal of Enzyme Inhibition and Medicinal Chemistry, 2021)

Target: Bromodomain-containing protein 4 (BRD4), BD2 (Homo sapiens, UniProt O60885)
Experiment: X-ray co-crystal structure ([…] Å); AlphaScreen displacement of histone H4 peptide
Format: binding

IC50: 204 nM
SMILES: O=c1cc(-c2ccc(O)c(O)c2)oc2c(O)c(O)ccc12 [compound 3478, 3′,4′,7,8-tetrahydroxyflavone]
